Data on one molecule can be found in ChEMBL document CHEMBL1125325, “Orally active, nonpeptide oxytocin antagonists” (J Med Chem, 1992).

The experiment deals with T1, Oxytocin receptor (Rattus norvegicus, UniProt P70536).
T1 sequence (P70536 whole entry): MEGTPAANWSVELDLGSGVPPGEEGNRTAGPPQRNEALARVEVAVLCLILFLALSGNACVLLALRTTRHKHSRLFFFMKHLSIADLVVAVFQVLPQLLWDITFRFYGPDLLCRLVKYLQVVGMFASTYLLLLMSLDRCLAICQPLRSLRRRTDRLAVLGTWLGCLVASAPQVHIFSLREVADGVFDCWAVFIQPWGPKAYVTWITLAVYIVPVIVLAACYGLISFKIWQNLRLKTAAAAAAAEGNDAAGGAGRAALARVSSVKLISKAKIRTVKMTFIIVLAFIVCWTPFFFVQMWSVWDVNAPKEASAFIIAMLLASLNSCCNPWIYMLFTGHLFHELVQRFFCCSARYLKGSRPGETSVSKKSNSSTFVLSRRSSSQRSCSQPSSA
Kind of experiment: Half-maximal inhibition of binding of [3H]oxytocin to OT receptor in rat uterine tissue. The method in brief:
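Competition binding on rat uterine tissue, with [3H]OT as radioligand. IC50 is the compound concentration, in μM, giving half-maximal inhibition of [3H]OT binding. Method follows an earlier report.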

Broadly, the IC50 is the concentration needed to halve the response being measured. Molecule `Cc1ccc(S(=O)(=O)N2CCC3(C=Cc4ccccc43)CC2)cc1` gave a concentration for half-maximal inhibition (IC50) of 4 µM.
